Results published in publication PMC11316256.

Assays:
Human IgG4κ (human) [1] = experiment: SPR; Biacore S200; IgG subclasses amine-coupled to a CM5 chip; sCD177 125-16,000 nM injected in 1×HBS-P+ at 30 µl/min; multicycle kinetics, global fit, 1:1 Langmuir model; KD = koff/kon
Human IgG1κ (human) [2] = experiment: as above
Human IgG2κ (human) [3] = experiment: as above
Human IgG3κ (human) [4] = experiment: as above
Human IgG4κ (human) [5] = experiment: as above; remark: listed apart in the source
Human IgG1κ (human) [6] = experiment: SPR; Biacore S200; IgG subclasses amine-coupled to a CM5 chip; sCD177 125-16,000 nM in 1×HBS-P+; KD from the concentration-dependence of the steady-state signal
Human IgG2κ (human) [7] = experiment: as above
Human IgG3κ (human) [8] = experiment: as above
Human IgG4κ (human) [9] = experiment: as above

B1: soluble CD177 (sCD177), extracellular domain residues 1-408 (domain or fragment)
chain: LLCQFGTVQHVWKVSDLPRQWTPKNTSCDSGLGCQDTLMLIESGPQVSLVLSKGCTEAKDQEPRVTEHRMGPGLSLISYTFVCRQEDFCNNLVNSLPLWAPQPPADPGSLRCPVCLSMEGCLEGTTEEICPKGTTHCYDGLLRLRGGGIFSNLRVQGCMPQPGCNLLNGTQEIGPVGMTENCNRKDFLTCHRGTTIMTHGNLAQEPTDWTTSNTEMCEVGQVCQETLLLLDVGLTSTLVGTKGCSTVGAQNSQKTTIHSAPPGVLVASYTHFCSSDLCNSASSSSVLLNSLPPQAAPVPGDRQCPTCVQPLGTCSSGSPRMTCPRGATHCYDGYIHLSGGGLSTKMSIQGCVAQPSSFLLNHTRQIGIFSAREKRDVQPPASQHEGG
- Kd (Human IgG4κ (human) [1]): 1970 nM
- Kd (Human IgG1κ (human) [2]): 1770 nM
- koff (Human IgG1κ (human) [2]): 0.00539 s⁻¹
- kon (Human IgG1κ (human) [2]): 3040 M⁻¹ s⁻¹
- Kd (Human IgG2κ (human) [3]): 2800 nM
- koff (Human IgG2κ (human) [3]): 0.00937 s⁻¹
- kon (Human IgG2κ (human) [3]): 3350 M⁻¹ s⁻¹
- Kd (Human IgG3κ (human) [4]): 1610 nM
- koff (Human IgG3κ (human) [4]): 0.00494 s⁻¹
- kon (Human IgG3κ (human) [4]): 3070 M⁻¹ s⁻¹
- Kd (Human IgG4κ (human) [5]): 1200 nM
- koff (Human IgG4κ (human) [5]): 0.00401 s⁻¹
- kon (Human IgG4κ (human) [5]): 3350 M⁻¹ s⁻¹
- Kd (Human IgG1κ (human) [6]): 29700 nM
- Kd (Human IgG2κ (human) [7]): 30300 nM
- Kd (Human IgG3κ (human) [8]): 40700 nM
- Kd (Human IgG4κ (human) [9]): 41200 nM
